Assay results taken from publication PMC7795171, “In Silico and In Vitro Analysis of Major Cannabis-Derived Compounds as Fatty Acid Amide Hydrolase Inhibitors” (Molecules, 2020).

Sequences of proteins named here, by UniProt entry; tags and fusion partners are left off.
UniProt P97612, whole entry: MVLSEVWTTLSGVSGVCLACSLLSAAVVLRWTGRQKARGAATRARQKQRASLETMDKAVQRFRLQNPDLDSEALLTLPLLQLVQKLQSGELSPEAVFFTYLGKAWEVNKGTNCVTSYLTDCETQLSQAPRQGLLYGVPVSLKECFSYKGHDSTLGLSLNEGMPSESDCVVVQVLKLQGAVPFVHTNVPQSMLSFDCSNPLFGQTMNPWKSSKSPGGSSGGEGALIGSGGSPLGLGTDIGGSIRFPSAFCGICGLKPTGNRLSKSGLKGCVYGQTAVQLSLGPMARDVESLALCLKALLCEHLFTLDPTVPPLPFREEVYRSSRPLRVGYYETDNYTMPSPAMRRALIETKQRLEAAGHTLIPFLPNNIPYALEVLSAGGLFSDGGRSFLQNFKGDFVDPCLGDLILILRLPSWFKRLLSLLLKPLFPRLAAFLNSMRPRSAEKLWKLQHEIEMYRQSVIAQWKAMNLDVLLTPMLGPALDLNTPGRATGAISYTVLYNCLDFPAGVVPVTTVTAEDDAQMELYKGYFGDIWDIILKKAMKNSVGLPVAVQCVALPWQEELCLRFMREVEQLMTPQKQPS

Target: T1, rFAAH (Rattus norvegicus, UniProt P97612)
T1 construct: from tissue; host or cells: rat brain membranes
Assay: FAAH activity assay, rat brain membranes, [14C]AEA hydrolysis
Format: biochemical
Conditions: 10 µM [14C]AEA, 37 °C, 15 min, pH 9.0, dose-response 0–100 µM, read-out: IC50 Towards rFAAH
Experimental: Rat brains were homogenized in 50 mM Tris-HCl (50 mM, pH 7.4), and were centrifuged sequentially at 800× g and 20,000× g; then, the supernatants were discharged, and rFAAH activity was tested in membrane preparations incubated with 10 µM [^14C]AEA at 37 °C for 15 min (pH = 9.0). The reaction was stopped with a 1:1 (v/v) mixture of chloroform/methanol and the release of [^14C]ethanolamine in the aqueous phase was measured as reported. Purified human FAAH was assayed in the same way as rFAAH.

SMILES: C=C(C)[C@@H]1CCC(C)=C[C@H]1c1c(O)cc(CCCCC)cc1O [CBD, cannabidiol, reference compound]
- IC50: 43.5 ± 1.5 µM
